Data taken from ChEMBL document CHEMBL1132154, “Novel partial agonists for the histamine H(3) receptor with high in vitro and in vivo activity” (J Med Chem, 1999).

By UniProt entry, the sequences of proteins in these tests, tags left out. Where a name states a change or a piece, a line headed by the entry shows the natural chain unless it says otherwise.
UniProt Q9QYN8: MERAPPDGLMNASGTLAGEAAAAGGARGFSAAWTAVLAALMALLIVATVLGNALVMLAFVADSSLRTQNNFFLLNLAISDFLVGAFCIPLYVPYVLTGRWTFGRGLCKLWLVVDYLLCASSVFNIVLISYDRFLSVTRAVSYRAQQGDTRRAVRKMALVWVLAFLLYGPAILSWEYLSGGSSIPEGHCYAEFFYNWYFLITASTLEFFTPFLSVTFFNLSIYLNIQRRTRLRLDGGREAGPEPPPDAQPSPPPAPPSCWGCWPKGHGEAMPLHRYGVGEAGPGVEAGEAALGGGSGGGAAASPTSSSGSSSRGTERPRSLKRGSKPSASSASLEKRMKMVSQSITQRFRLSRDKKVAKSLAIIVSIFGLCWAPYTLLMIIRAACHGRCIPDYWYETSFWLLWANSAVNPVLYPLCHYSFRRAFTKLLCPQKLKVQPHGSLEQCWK

Biological target: Histamine H3 receptor (Rattus norvegicus, UniProt Q9QYN8)
Assay: In vitro binding affinity against histamine H3 receptor from synaptosomes of rat cerebral cortex
Type: subcellular, Brain
Method in brief: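 Rat cerebral cortex synaptosomes; K+-evoked depolarization-induced [3H]histamine release measured for H3 agonist and antagonist activity; intrinsic activity derived from this preparation; at least triplicate.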

`N=C(N)SCCc1cnc[nH]1` [IMETIT] was tested, and the pEC50 was 8.55.

pEC50: −log10 of the molar value.
